Assay results from publication PMC3338918 (2012).

Molecular target: T1, VEGF-A165 (Homo sapiens, UniProt P15692)
T1 chain: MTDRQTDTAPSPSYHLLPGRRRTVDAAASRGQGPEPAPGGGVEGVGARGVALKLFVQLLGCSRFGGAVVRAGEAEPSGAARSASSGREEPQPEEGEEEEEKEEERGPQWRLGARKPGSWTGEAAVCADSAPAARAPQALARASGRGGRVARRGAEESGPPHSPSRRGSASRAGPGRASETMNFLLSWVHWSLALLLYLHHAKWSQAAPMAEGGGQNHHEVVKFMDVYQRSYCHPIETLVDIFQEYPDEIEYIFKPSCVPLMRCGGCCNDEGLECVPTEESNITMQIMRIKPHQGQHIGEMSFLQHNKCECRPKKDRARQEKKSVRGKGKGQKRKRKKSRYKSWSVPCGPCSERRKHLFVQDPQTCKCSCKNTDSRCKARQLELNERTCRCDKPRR
Assay: KinExA

Kd: 0.0206 nM
B1: ranibizumab Fab (antibody, V domains shown)
VH: EVQLVESGGGLVQPGGSLRLSCAASGYDFTHYGMNWVRQAPGKGLEWVGWINTYTGEPTYAADFKRRFTFSLDTSKSTAYLQMNSLRAEDTAVYYCAKYPYYYGTSHWYFDVWGQGTLVTVSS
VL: DIQLTQSPSSLSASVGDRVTITCSASQDISNYLNWYQQKPGKAPKVLIYFTSSLHSGVPSRFSGSGSGTDFTLTISSLQPEDFATYYCQQYSTVPWTFGQGTKVEIKR
